Experimental data published in patent EP4817687A2, “NUCLEOTIDE AND NUCLEOSIDE THERAPEUTIC COMPOSITIONS AND USES RELATED THERETO” (Emory University, priority 2013, dated 2015).

Tested on: HCV Replicon GT-1b
Test: microbe, parasite or virus in culture
Conditions: Hepatitis C virus, GT1B, read-out: HCV Replicon Assay EC50 uM

`C[C@@]1(F)[C@H](O)[C@@H](CO)O[C@H]1n1ccc(=S)[nH]c1=O` showed an EC50 of over 100 µM.
`CC(C)OC(=O)[C@H](C)N[P@@](=O)(OC[C@H]1O[C@@H](n2ccc(=O)[nH]c2=O)[C@](C)(F)[C@@H]1O)Oc1ccccc1` showed an EC50 of 0.221 µM.
Work on `CC(C)OC(=O)[C@H](C)NP(=O)(OC[C@H]1O[C@@H](n2ccc(=O)[nH]c2=S)[C@](C)(O)[C@@H]1O)Oc1ccccc1` (stereo partly drawn) [drawing 456] yielded an EC50 (Huh-luc/neo-ET) of 0.152 µM.
`CC(C)OC(=O)[C@H](C)NP(=O)(OC[C@H]1O[C@@H](n2ccc(=O)[nH]c2=S)[C@](C)(O)[C@@H]1O)Oc1ccccc1` (stereo partly drawn) [drawing 453] showed an EC50 of 0.187 µM.
With `C[C@@]1(O)[C@H](O)[C@@H](COP(=O)(O)O)O[C@H]1n1ccc(=O)[nH]c1=S` the EC50 was 1.35 µM.
`C[C@@]1(O)[C@H](O)[C@@H](CO)O[C@H]1n1ccc(=S)[nH]c1=O` gave an EC50 of over 100 µM.
`CC(C)OC(=O)[C@H](C)NP(=O)(OC[C@H]1O[C@@H](n2ccc(=O)[nH]c2=O)[C@](C)(O)[C@@H]1O)Oc1ccccc1` (stereo partly drawn) was tested, and the EC50 was 0.0317 µM.
Work on `CC(C)OC(=O)[C@H](C)NP(=O)(OC[C@H]1O[C@@H](n2ccc(=S)[nH]c2=O)[C@](C)(F)[C@@H]1O)Oc1ccccc1` (stereo partly drawn) yielded an EC50 of over 100 µM.
With `CC(C)OC(=O)[C@H](C)NP(=O)(OC[C@H]1O[C@@H](n2ccc(=O)[nH]c2=S)[C@H](O)[C@@H]1O)Oc1ccccc1` (stereo partly drawn) [drawing 463] the EC50 was 39.2 µM.
With `C[C@H](NP(=O)(O)OC[C@H]1O[C@@H](n2ccc(=O)[nH]c2=S)[C@](C)(O)[C@@H]1O)C(=O)O` the EC50 was over 100 µM.
`C[C@@]1(O)[C@H](O)[C@@H](CO)O[C@H]1n1ccc(=O)[nH]c1=S` [drawing 452] showed an EC50 of over 100 µM.
`CC(C)OC(=O)[C@H](C)N[P@](=O)(OC[C@H]1O[C@@H](n2ccc(=O)[nH]c2=O)[C@](C)(F)[C@@H]1O)Oc1ccccc1` [drawing 460] showed an EC50 of 0.0199 µM.
Molecule `CC(C)OC(=O)[C@H](C)NP(=O)(OC[C@H]1O[C@@H](n2ccc(=O)[nH]c2=[Se])[C@](C)(O)[C@@H]1O)Oc1ccccc1` (stereo partly drawn) has an EC50 of 3.97 µM.
With `CC(C)OC(=O)[C@H](C)NP(=O)(OC[C@H]1O[C@@H](n2ccc(=S)[nH]c2=O)[C@H](O)[C@@H]1O)Oc1ccccc1` (stereo partly drawn) [drawing 462] the EC50 was over 100 µM.
Work on `CC(C)OC(=O)[C@H](C)NP(=O)(OC[C@H]1O[C@@H](n2ccc(=S)[nH]c2=O)[C@](C)(O)[C@@H]1O)Oc1ccccc1` (stereo partly drawn) [drawing 455] yielded an EC50 of 7.98 µM.

Like-named read-outs stand apart in the source and are kept apart here.
